## AlphaSeq binding of Ab-95 light chain variants to a spike HR2 peptide

The measurements come from Engelhart et al. 2022 (doi:10.1038/s41597-022-01779-4) through the FLAb antibody collection.

Target: peptide PDVDLGDISGINAS, taken from heptad repeat 2 (HR2) of SARS-CoV-2 spike.

Ab-95 is the parent antibody, in scFv form: VH, then three GGGGS repeats, then VL. The heavy chain is unchanged in all variants.
VH: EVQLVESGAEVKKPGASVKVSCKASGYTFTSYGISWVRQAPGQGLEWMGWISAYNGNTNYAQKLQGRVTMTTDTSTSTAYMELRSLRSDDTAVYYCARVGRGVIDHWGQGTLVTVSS
VL: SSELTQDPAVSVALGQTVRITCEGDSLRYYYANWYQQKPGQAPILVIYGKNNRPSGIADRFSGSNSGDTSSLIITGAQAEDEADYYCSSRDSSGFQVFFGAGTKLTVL

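Library AAYL52 holds single substitutions and randomly drawn double and triple substitutions in the CDRs. The assay is AlphaSeq: two haploid yeast populations carry antibody and antigen on their surface. Pairs that bind mate more often; barcode pairs of the diploids are counted by sequencing. A regression on co-assayed BCL2-family reference pairs converts the normalised counts of each replicate to an apparent Kd. The assay was run in three technical replicates.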

Variants are written as CDR1, CDR2 and CDR3 of the light chain (limits as in the source). Parent: EGDSLRYYYAN, GKNNRPS, SSRDSSGFQVF. This list gathers variants with a substitution at R53 (VL, numbered from residue 1). Scale: log10 of Kd in nM, estimated from mating counts; low values are strong binders. Where no diploid with the target was found in that replicate, the entry reads "nd": below detection, most likely a poor binder, though not proof of it. Empty control strains, which show no peptide, gave a signal in 28% of pairings with library AAYL52; the median was 3.91 and 95% of these signals were weaker than 2.90. No background was subtracted. The control count says in how many pairings with the empty strains this scFv gave a signal.

- EHDSLRYYYAN / GKNNDPS / SSRDSSGDQVF = nd, 4.15, nd (controls 3 of 9)
- EGDSLRYYYAN / GKNNQPS / SSRDLSGFQVF = 4.04, nd, 3.13 (controls 6 of 9)
- EGDSLRYAYAN / GKNNHPS / SSRDSCGFQVF = 2.72, 3.25, nd (controls 2 of 9)
- WGDSLRYYYAN / GKNNAPS / SSRDSVGFQVF = 4.67, 4.44, 4.13 (controls 5 of 9)
- EGDWLRYYYAN / GKNNMPS / SSRDSSGFQMF = 4.51, nd, 4.10 (controls 2 of 9)
- EGDSLRYYYAN / GKNNGVS / SSRDSSWFQVF = nd, nd, 3.27 (controls 2 of 9)
- EGDSLRYYYAN / GKNNLPC / SSRDHSGFQVF = 3.73, 3.73, 3.23 (controls 1 of 9)
- EGDSLRYYYAN / GKNNDPS / SYRFSSGFQVF = 3.80, nd, 4.06 (controls 1 of 9)
- EGDSLNYYYAN / GKNNCPS / SSRDSSGSQVF = nd, nd, nd (controls 1 of 9)
- EGDSLRQYYAN / GKNNKPS / SSRDSSIFQVF = 2.51, 2.42, 2.49 (controls 6 of 9)
- EGDSLRLYYAN / GKNNLPS / SSRDSSGFVVF = 3.24, nd, nd (controls 5 of 9)
- EGDSLRYYYAN / GKNNTNS / SSRDKSGFQVF = 2.13, 1.96, 1.93 (controls 1 of 9)
- EGDSLRYYYAN / GKNNHPS / SSRTGSGFQVF = 4.20, nd, nd (controls 4 of 9)
- EGDSLHYYIAN / GKNNTPS / SSRDSSGFQVF = 3.83, 4.00, nd (controls 2 of 9)
- EGDSVRYYYAN / GKNNTPS / GSRDSSGFQVF = nd, nd, nd (controls 2 of 9)
- EGDSLRYYYAN / GKNPQPS / SSRDSSGFQVV = 3.85, nd, nd (controls 1 of 9)
- EGPSLRYYYAN / GKNNNPS / SSRDSSGFQNF = 3.43, 3.25, 2.42 (controls 5 of 9)
- EGRSLRYYYAN / GKNNYPS / SSRDSSGFQVF = nd, 3.32, 4.11 (controls 7 of 9)
- EGDSLRYEYAN / GKNNLPS / SSRDSSGFQVF = 1.75, 1.78, 1.23 (controls 4 of 9)
- EGFSLRYYYAN / GKNNFPS / SSRSSSGFQVF = 5.03, nd, nd (controls 1 of 9)
- EGDSLLYYYAN / GKGNGPS / SSRDSSGFQVF = 5.05, 3.98, 2.81 (controls 1 of 9)
- EGDSLRYYYAN / GKNCEPS / SSRDSSGHQVF = 4.04, 4.75, nd (controls 2 of 9)
- EGSDLRYYYAN / GKNNIPS / SSRDSSGFQVF = 2.82, 3.27, 2.59 (controls 2 of 9)
- EVDSLQYYYAN / GKNNVPS / SSRDSSGFQVF = 2.42, 2.09, 2.20 (controls 1 of 9)
- EGDSLRYYYAN / GHNNTPS / SSRNSSGFQVF = 2.39, 2.65, 2.58 (controls 6 of 9)
- EGDTLRYYYAN / GMNNPPS / SSRDSSGFQVF = 5.10, nd, nd (controls 4 of 9)
- EGDSLRYYYAN / GKNNAPS / SSRDSRGFAVF = 4.33, 4.06, nd (controls 1 of 9)
- IGDSLRYYYAN / GKNNIPS / SSRDSSGFQKF = 3.87, 3.77, 3.51 (controls 3 of 9)
- TGDSLRYYYAN / GSNNTPS / SSRDSSGFQVF = 2.82, 2.57, 2.15 (controls 1 of 9)
- EGDSLRYYKCN / GKNNWPS / SSRDSSGFQVF = nd, nd, nd (controls 0 of 9)
- EHDSLVYYYAN / GKNNEPS / SSRDSSGFQVF = 3.41, 2.80, 3.58 (controls 3 of 9)
- EGDSLRMYYAN / GKNNDPK / SSRDSSGFQVF = nd, nd, nd (controls 0 of 9)

From the list, the first 4 with no signal in any replicate:

{"CDR-L1": "EGDSLNYYYAN", "CDR-L2": "GKNNCPS", "CDR-L3": "SSRDSSGSQVF", "log10 Kd, replicates": "nd, nd, nd", "empty controls": "1/9"}
{"CDR-L1": "EGDSVRYYYAN", "CDR-L2": "GKNNTPS", "CDR-L3": "GSRDSSGFQVF", "log10 Kd, replicates": "nd, nd, nd", "empty controls": "2/9"}
{"CDR-L1": "EGDSLRYYKCN", "CDR-L2": "GKNNWPS", "CDR-L3": "SSRDSSGFQVF", "log10 Kd, replicates": "nd, nd, nd", "empty controls": "0/9"}
{"CDR-L1": "EGDSLRMYYAN", "CDR-L2": "GKNNDPK", "CDR-L3": "SSRDSSGFQVF", "log10 Kd, replicates": "nd, nd, nd", "empty controls": "0/9"}